Test results: PubChem BioAssay AID587 (National Center for Advancing Translational Sciences (NCATS), 2007)
The list shows a part of the results, in another mix than the full data. Results filed as inconclusive are left out. The source made the active and inactive calls. Cut-off read from the data, not from the text of the source: active = max dye-equivalent concentration above about 10 nM; inconclusive = between about 1.1 nM and that limit; inactive = weaker than that.

experiment: qHTS Assay for Spectroscopic Profiling in Texas Red Spectral Region; details: Compound fluorescence, Texas Red channel, 547/618 nm
Text: NIH Molecular Libraries Screening Centers Network [MLSCN] NIH Chemical Genomics Center [NCGC] […] Occasionally, the artifactual effect may originate from the compound#s own spectral or other biophysical properties which generally tend to track its assay concentration. Pre-screening/profiling the library with respect to the compounds# spectral properties should help one exclude false positives early on. While the most informative fluorescent profiling data set is obtained by performing a full excitation and emission scan of each well by using a monochromator-based plate reader, such an approach is practical only on a very limited scale as scanning each well requires long time. An alternative approach, applied here, is to perform plate reader scans using selected excitation and emission wavelength pairs to generate a multidimensional relational database that correlates compound concentration and the respective relative fluorescence intensity at a given wavelength set. A standard curve of Texas Red (TR) present on each plate as six-point concentration series, was used to compute a normalized fluorescence response, termed dye-equivalent concentration, for each compound at each concentration.
NCGC Assay Protocol Summary: Buffer: 100 mM Tris buffer, pH 8.0 Dye standard plate: The wells in columns 1 through 4 of a Kalypsys polypropylene 1536-well compound plate were filled with standard solutions of fluorophore corresponding to the spectral region of interest. Solutions of TR were placed in the following wells: U1, V1: 3 mM, U2, V2: 300 uM, U3, V3: 30 uM, U4, V4: zero (DMSO), W1, X1: 3 uM, W2, X2: 900 nM, W3, X3: 300 nM, W4, X4: zero (DMSO). Assay Steps: Six uL of buffer were dispensed to 1536-well Greiner black plates. Compounds and dye standards (23 nL) were transferred via Kalypsys PinTool. The plates were incubated for 15 min at room temperature, and then read on ViewLux (Perkin-Elmer) High-throughput CCD imager using 547 nm and 618 nm excitation and emission filter set. Keywords: NIH Roadmap, MLSCN, MLI, MLSMR, qHTS, NCGC, Texas Red, Fluorescent Profiling.

Row | Compound | outcome
1 | O=C(OC1CN2CCC1CC2)C1c2ccccc2Oc2ccccc21 (stereo not drawn) | inactive
2 | O=C(O)C1(Nc2ccccc2)CCN(Cc2ccccc2)CC1 | inactive
3 | N/C(=N\O)c1c(N)no[n+]1[O-] | inactive
